## scFv variants of Ab-14 (heavy chain) against a SARS-CoV-2 spike peptide

From the AlphaSeq antibody data of Engelhart et al. 2022 (doi:10.1038/s41597-022-01779-4), copy in the FLAb collection.

Antigen: PDVDLGDISGINAS, a 14-residue peptide of the SARS-CoV-2 spike HR2 region.

The variants keep the light chain, the linker and the frameworks of Ab-14 (scFv order VH, a 15-residue (Gly4Ser)3 linker, VL).
VH: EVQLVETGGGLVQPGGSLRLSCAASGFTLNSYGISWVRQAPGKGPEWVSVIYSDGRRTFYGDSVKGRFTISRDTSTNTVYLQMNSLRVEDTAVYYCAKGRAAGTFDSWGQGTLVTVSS
VL: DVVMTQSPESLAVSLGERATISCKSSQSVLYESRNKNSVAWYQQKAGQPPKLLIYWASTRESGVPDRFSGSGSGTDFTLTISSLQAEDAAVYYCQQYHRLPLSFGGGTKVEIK

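The parent was found by panning a naive human phage display library on the peptide. In library AAYL49, one, two or three CDR residues were substituted; doubles and triples were drawn at random. Affinity was read by AlphaSeq, a pooled yeast mating assay with surface-displayed partners. Binding brings cells together so that they mate, and sequencing counts the barcode pairs among the diploids. A regression on co-assayed BCL2-family reference pairs converts the normalised counts of each replicate to an apparent Kd. Each pool was mated in three replicate cultures.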

Variants are written as CDR1, CDR2 and CDR3 of the heavy chain (limits as in the source). Parent: GFTLNSYGIS, VIYSDGRRTFYGDSVK, GRAAGTFDS.
Every variant below is changed at V64 of the VH (sequential numbering).
The Kd shown is the geometric mean over detected replicates; a lower Kd is a better binder.
A pair that was not seen in any replicate is written "not detected"; this usually means weak binding, but a binder can also be missed.
For reference, the parent read 4.4 nM as the reference entry and 13 µM (one replicate of three) as a member of this library.
Background: pairings of library AAYL49 with three empty control strains gave a value in 15% of cases (median 11 µM, 5th percentile 680 nM). Values in that range, when seen in few replicates, are hard to tell from nonspecific mating.

CDR-H1,CDR-H2,CDR-H3,apparent Kd,detected
GFTLYSYGIS,VIYSDGRRTFYNDSKK,GRAAGTFDS,140 µM,1 of 3
GFTLNSYGIQ,VIYSDGRRTRYGDSFK,GRAAGTFDS,860 nM,1 of 3
GFTLNSYGIS,VIYSDGRRTFYGDAKK,GRAAGTFDS,not detected,0 of 3
GFTLNSYGIS,VIYSDKRRTFYGDSMK,CRAAGTFDS,12 µM,2 of 3
GFTLCSYGIS,VIYSDGRRTFYGDSGK,GRSAGTFDS,270 µM,1 of 3
GFTLNSYGIS,VIYSDGRRTFYGDRAK,GRAAGPFDS,34 µM,2 of 3
GFTLNSYGIS,VINSDGRRTFGGDSHK,GRAAGTFDS,120 µM,1 of 3
GFTLNSYGIS,VIYSDGRRTFYGDSIK,GRAAGTFDS,150 µM,3 of 3
GFTLNSYGIS,VIYSDGRRTFYGDSWK,KRAAGTFYS,210 µM,1 of 3
GFTLNSYGIS,VIYSDGRRHFYGDSSK,GRRAGTFDS,not detected,0 of 3
GFTLNSYGIS,VIYSDGRRTFYGGSNK,GRAACTFDS,not detected,0 of 3
GFTLNSYGIS,VIYSDRRRTFYGDVEK,GRAAGTFDS,2.9 µM,1 of 3
LFTLSSYGIS,VIYSDGRRTFYGDSYK,GRAAGTFDS,8.6 µM,1 of 3
GFTLNSYGIS,VIYSPGRRTFYGDSGK,GRAAGTFLS,not detected,0 of 3
GFNLNSYGIS,VWYSDGRRTFYGDSEK,GRAAGTFDS,not detected,0 of 3
GFTLNSYGIS,VIYSDGRRTFYGDSLK,GRAAHTHDS,8.2 µM,2 of 3
GFTLNSYGIS,RIYSDGRRTFYGFSSK,GRAAGTFDS,not detected,0 of 3
GATLNSYGIS,VIYSDGRRTFYGDSPK,GRAAGTFQS,8.8 µM,2 of 3
GFTLNSYQIS,VIHSDGRRTFYGDSKK,GRAAGTFDS,not detected,0 of 3
GFTLNSYGIS,WIYSDGRRTNYGDSWK,GRAAGTFDS,1.0 µM,1 of 3
GFTENSYGIS,VIYCDGRRTFYGDSLK,GRAAGTFDS,not detected,0 of 3
GFTLNSYGIS,VIYSDGRRTDYGDSKK,GRAKGTFDS,15 µM,1 of 3
GFTLNSYGIS,VITSDGRRTFYGDSAK,GFAAGTFDS,not detected,0 of 3
GFTPNSYGIS,VIYSDGRRTFYGDSNK,CRAAGTFDS,5.4 µM,1 of 3
GFTLNSYGIS,VIYSDGRRTFYGDSQK,GRAAGTFDS,1.4 µM,1 of 3
GFTLNLYGIS,VIYSDGRRTFYGSSCK,GRAAGTFDS,16 µM,2 of 3
GFTLNSYGIS,VIYSDGRRTFYGDSKK,GRAAGTFDS,not detected,0 of 3
GFTLNSYGIS,VIYSDGRRTFYGDSIK,GRAAGTFDL,not detected,0 of 3
GFTLNSYGIS,VIYSDGKRTFYGDSDK,GRAAGTFDS,not detected,0 of 3
GFTLNSYGIF,VIYSNGRRTFYGDSGK,GRAAGTFDS,not detected,0 of 3
GFTLNSYGIS,VIYSDGRRTFYGDSEK,GRAAGLFDS,not detected,0 of 3
GFTLNSYGTS,VIYSDGRRTFYKDSSK,GRAAGTFDS,11 µM,1 of 3
GFTLNSYGIV,VIYSDGRRTFYGDSWK,GRAAGTFES,76 µM,3 of 3
GFTLNSYGIS,VIQSDGRRCFYGDSLK,GRAAGTFDS,not detected,0 of 3
GFTLNSCGIS,VIYSDYRRTFYGDSDK,GRAAGTFDS,not detected,0 of 3
GFTLNSSGIS,VIYSDGRRTDYGDSKK,GRAAGTFDS,not detected,0 of 3
GFTLNSYGIS,VIYSHGRRTFYGDSCK,GRAAGTFTS,not detected,0 of 3
GFTLISYGIS,VIYSDGRRTFYGDSRK,GQAAGTFDS,130 µM,1 of 3
GFTLNSYMIS,VIYSDGRRTFYGDSGK,GRAAGTFDN,not detected,0 of 3
GRTLNSYGIS,VIYSDGRRTFYGGSYK,GRAAGTFDS,not detected,0 of 3
GFMLNSYGIS,VIYSDGRRTFDGDSSK,GRAAGTFDS,230 µM,1 of 3
GFTLNSYIIS,VIYSDGRRTFYGDSQK,GRAAGTFNS,not detected,0 of 3
GFTLNSYGIS,VIYSDTRLTFYGDSQK,GRAAGTFDS,not detected,0 of 3
GFTLNSYGIE,VIYSDGRRTFYQDSKK,GRAAGTFDS,6.0 µM,1 of 3
GFTLNSYGIS,VIDSDGRRTFYGDSDK,GRIAGTFDS,not detected,0 of 3
GFTLASYQIS,VIYSDGRRTFYGDSSK,GRAAGTFDS,14 µM,3 of 3
GHTLNSYGIS,VIYSDGRRTFYGDSTK,GRACGTFDS,17 µM,1 of 3
GFTLNSCGDS,VIYSDGRRTFYGDSTK,GRAAGTFDS,180 µM,1 of 3
GFTLNSYGIS,SIYSDGRRTFYGDSMK,GRMAGTFDS,not detected,0 of 3
GFTQNSYGIS,VIYSDGRRTFYGDSGK,GRAAGTFDS,not detected,0 of 3